Values quoted from earlier work in publication PMC9781087, “Discovery of New Microbial Collagenase Inhibitors” (Life, 2022).

Test system: normal fibrobast cells
Conditions: 1 μM concentration; cited from earlier work

**Q.** Which “toxicity on normal fibroblast cells” value does the source give for O=C1C=CC(=O)c2c(O)cccc21 [Juglone, juglone] here?
**A.** The value was “no significant effect”.
